The subject of data set [1] is subcutaneous patient derived gastric tumor. Put plainly: Therapeutic efficacy in PDX gastric tumor model. Particulars: FIG. 4C; 10 mg/kg intravenously, weekly for a period of 45 days; mice bearing subcutaneous patient derived gastric tumor; versus saline. Type of data set: in vivo, BALB/c nu/nu nude mice. How it is done: FIGS. 4A-4C depict therapeutic efficacy of Trastuzumab MC-vc-TLRL and Trastuzumab MC-TLRL in PDX gastric tumor model. BALB/c nu/nu nude mice 6-8 week-old female mice bearing subcutaneous patient derived gastric tumor were treated intravenously with 10 mg/kg of Trastuzumab MC-vc-TLRL, Trastuzumab MC-TLRL, or unconjugated Trastuzumab or saline (12 mice per group). Treatment was performed weekly for a period of 45 days. Therapy was initiated when tumors reached a size on average of 170 mm^3. FIG. 4A: Data represents mean tumor volumes (mean±SD). Tumor growth curves were stopped when tumors reached a size of 2000 mm^3. FIG. 4B: Body weight variations of the mice during and after therapy. […]
Drugs were administered by i.v. route with 5˜20 mg/kg of antibody or reference drug, QWK×3. Tumors were measured once a week by caliper to determine its subcutaneous growth. Tumors were measured twice a week in two dimensions with calipers. Tumor volume was calculated using following formula: tumor volume=(length×width2)×0.5. […]

Data set [2] can be described thus: Body weight of mice during and after therapy in PDX gastric tumor model. Type of data set: in vivo, BALB/c nu/nu nude mice. Particulars: FIG. 4B; 10 mg/kg intravenously, weekly for a period of 45 days.

For “Trastuzumab: humanized monoclonal antibody that acts on extracellular domain of Her2”, the “Survival curves of treatment and control groups” value in data set [1] is reported as “substantial prolongation”. The “Body weight variations of the mice during and after therapy” value in data set [2] is on record as “No detectable weight loss”.
For Trastuzumab MC-vc-TLRL, in that order: “substantial prolongation” and “No detectable weight loss”.

These data come from patent US11786604B2, “Compounds and compositions for treating HER2 positive tumors” (priority 2014, dated 2023).
